Results reported in patent US7919481B2, “Inositol pyrophosphates, and methods of use thereof” (NormOxys, Inc., priority 2002, dated 2011).

How the values were obtained:
whole blood = test: In vitro incubation of whole blood of three species, summary statements; type: cell-based, human, mouse and pig; conditions: in vitro incubation with whole blood
Procedure: The effectors kf96 and kf111 (60 mM) were tested for P50 shifts in whole blood of three species: human, mouse and pig. As usual, pH's for the compound-solutions were adjusted to ˜7.0, osmolarities for both solutions were determined (325-373 mOsM) prior to effectors, and whole blood volumes at 1:1 ratios were incubated.

[1] = 30 and 45 mM
C57BL/6 mice = test: Tolerability of intraperitoneal injection in mice; type: in vivo; conditions: 30, 45 and 60 mM

Row | Substance | lysis of RBCs (whole blood) | toxicity by direct injection into the vein [1] | toxicity by intraperitoneal injection (C57BL/6 mice)
1 | IHP Cholesteryoxy Carbonyl Hepta N,N-Dimethyl Cyclohexyl Ammonium Salt [kf96] | no lysis of RBCs was observed | – | –
2 | IHP Cholesteryoxy Carbonyl Hepta N,N-Dimethyl Cyclohexyl Ammonium Salt [kf16] | – | non-toxic | non toxic
